From publication PMC7226989, “Establishment of an in Vitro Human Blood-Brain Barrier Model Derived from Induced Pluripotent Stem Cells and Comparison to a Porcine Cell-Based System” (Cells, 2020) come the findings set out here.

Data set [1] deals with hiPSC-derived BMECs (Cl1).

Regarding rhodamine-123, in data set [1], the “Permeability human BBB_Cl1” value was 0.61 ± 0.01 x10^-6 cm/s. The “Permeability coefficient in the human model” value in the data set on hiPSC-derived BMECs was determined as 6e-07 cm/s.
